Tested on: Kv3.1 α-subunit mRNA
Assay: Experiment 1: in situ hybridization of Kv3.1 α-subunit mRNA in brain, chronic PCP rat model of schizophrenia with antipsychotic co-treatment
Assay type: in vivo

## Cc1cc2c(s1)Nc1ccccc1N=C2N1CCN(C)CC1 [Olanzapine, olanzapine]
CA2pd, PCP + drug 3 mg/kg/day
  Kv3.1 α-subunit mRNA expression: 24.21 ± 1.23 PSL/mm^2
DLStr, PCP + drug 0.3 mg/kg/day
  Kv3.1 α-subunit mRNA expression: 6.87 ± 0.38 PSL/mm^2
DLStr, PCP + drug 1 mg/kg/day
  Kv3.1 α-subunit mRNA expression: 6.99 ± 0.43 PSL/mm^2
DLStr, PCP + drug 10 mg/kg/day
  Kv3.1 α-subunit mRNA expression: 6.70 ± 0.59 PSL/mm^2
M2, PCP + drug 0.3 mg/kg/day
  Kv3.1 α-subunit mRNA expression: 13.72 ± 0.78 PSL/mm^2
M2, PCP + drug 1 mg/kg/day
  Kv3.1 α-subunit mRNA expression: 12.57 ± 0.94 PSL/mm^2
M2, PCP + drug 10 mg/kg/day
  Kv3.1 α-subunit mRNA expression: 13.14 ± 0.99 PSL/mm^2
MG, PCP + drug 1 mg/kg/day
  Kv3.1 α-subunit mRNA expression: 25.50 ± 1.46 PSL/mm^2
MG, PCP + drug 10 mg/kg/day
  Kv3.1 α-subunit mRNA expression: 25.78 ± 0.77 PSL/mm^2
MM, PCP + drug 0.3 mg/kg/day
  Kv3.1 α-subunit mRNA expression: 25.36 ± 2.25 PSL/mm^2
MM, PCP + drug 1 mg/kg/day
  Kv3.1 α-subunit mRNA expression: 25.76 ± 1.27 PSL/mm^2
MM, PCP + drug 3 mg/kg/day
  Kv3.1 α-subunit mRNA expression: 25.24 ± 2.32 PSL/mm^2
PrL, PCP + drug 0.3 mg/kg/day
  Kv3.1 α-subunit mRNA expression: 12.50 PSL/mm^2
PrL, PCP + drug 1 mg/kg/day
  Kv3.1 α-subunit mRNA expression: 12.78 PSL/mm^2
PrL, PCP + drug 3 mg/kg/day
  Kv3.1 α-subunit mRNA expression: 13.18 PSL/mm^2
PrL, PCP + drug 10 mg/kg/day
  Kv3.1 α-subunit mRNA expression: 12.66 PSL/mm^2
SN, PCP + drug 1 mg/kg/day
  Kv3.1 α-subunit mRNA expression: 13.98 ± 0.96 PSL/mm^2
SN, PCP + drug 3 mg/kg/day
  Kv3.1 α-subunit mRNA expression: 13.09 ± 0.44 PSL/mm^2
SN, PCP + drug 10 mg/kg/day
  Kv3.1 α-subunit mRNA expression: 12.54 ± 0.68 PSL/mm^2
VMStr, PCP + drug 0.3 mg/kg/day
  Kv3.1 α-subunit mRNA expression: 7.33 PSL/mm^2
VMStr, PCP + drug 1 mg/kg/day
  Kv3.1 α-subunit mRNA expression: 6.88 ± 0.46 PSL/mm^2

From US20030224416A1, “Schizophrenia related gene” (priority 2002, published 2003)
